Results as given in patent US20080261892A1, “Acid Addition Salts of Ac-Phscn-Nh2” (priority 2005, published 2008).

Experiments:
[1] = Solution phase stability of free base, methanesulfonic acid salt and nitric acid salt (HPLC), Example 17; assay type: physicochemical; conditions: solution in distilled water, 25±0.5° C.
Protocol: (§1) All HPLC spectra were taken on a Waters HPLC that included Breeze software, a Waters 2487 Dual λ Absorbance Detector, a Waters 1525 Binary HPLC Pump, and a Waters 717 plus Autosampler. The column was a Phenomenex Synergi 4μ Hydro-RP 80A, 250×4.60 mm 4μ micron. The 40 minute gradient that was used is described in the table below.
A t=0 h timepoint was taken for each solution. The volumetric flasks were placed in a water bath at 25±0.5° C. and, periodically, a 0.7 mL aliquot was removed and the solution analyzed by HPLC as described in Example 15.

[2] = Solid phase stability of free base, methanesulfonic acid salt and nitric acid salt (HPLC), Example 18; assay type: physicochemical; conditions: solid stored at 25±0.5° C.
Protocol: as §1

Substance: Ac-Pro-His-Ser-Cys-Asn-NH2 Nitric Acid Salt
- % dimer ([1]; 0 h): 6.0%
- % monomer ([1]; 0 h): 94.0%
- % dimer ([1]; 69 h): 22.7%
- % monomer ([1]; 69 h): 77.3%
- % dimer ([1]; 140 h): 26.8%
- % monomer ([1]; 140 h): 73.2%
- % dimer ([1]; 213 h): 27.0%
- % monomer ([1]; 213 h): 73.0%
- % dimer ([1]; 332 h): 28.6%
- % monomer ([1]; 332 h): 71.4%
- % dimer ([1]; 408 h): 28.9%
- % monomer ([1]; 408 h): 71.1%
- % dimer ([1]; 479 h): 30.8%
- % monomer ([1]; 479 h): 69.2%
- % dimer ([1]; 549 h): 36.4%
- % monomer ([1]; 549 h): 63.6%
- % dimer ([1]; 645 h): 45.9%
- % monomer ([1]; 645 h): 54.1%
- % dimer ([1]; 720 h): 54.0%
- % monomer ([1]; 720 h): 46.0%
- % dimer ([1]; 836 h): 64.0%
- % monomer ([1]; 836 h): 36.0%
- % dimer ([2]; 0 h): 8.0%
- % monomer ([2]; 0 h): 92.0%
- % dimer ([2]; 161 h): 7.4%
- % monomer ([2]; 161 h): 92.6%
- % dimer ([2]; 335 h): 7.8%
- % monomer ([2]; 335 h): 92.2%
- % dimer ([2]; 498 h): 7.2%
- % monomer ([2]; 498 h): 92.8%
- % dimer ([2]; 670 h): 7.7%
- % monomer ([2]; 670 h): 92.3%
- % dimer ([2]; 832 h): 7.7%
- % monomer ([2]; 832 h): 92.3%
- % dimer ([2]; 1003 h): 7.4%
- % monomer ([2]; 1003 h): 92.6%
- % dimer ([2]; 1170 h): 7.7%
- % monomer ([2]; 1170 h): 92.3%
- % dimer ([2]; 1363 h): 6.7%
- % monomer ([2]; 1363 h): 93.3%
- % dimer ([2]; 1506 h): 7.4%
- % monomer ([2]; 1506 h): 92.6%
- % dimer ([2]; 1698 h): 7.6%
- % monomer ([2]; 1698 h): 92.4%
